scFv variants of Ab-91 (heavy chain) against a SARS-CoV-2 spike peptide

Binding partner: SARS-CoV-2 spike HR2 peptide, sequence PDVDLGDISGINAS.

Ab-91 is the parent antibody, in scFv form: VL, then a (GGGGS)3 linker, then VH. The light chain is unchanged in all variants.
VL: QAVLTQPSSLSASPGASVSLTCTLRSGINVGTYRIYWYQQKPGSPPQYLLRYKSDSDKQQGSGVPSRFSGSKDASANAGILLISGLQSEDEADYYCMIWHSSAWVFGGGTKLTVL
VH: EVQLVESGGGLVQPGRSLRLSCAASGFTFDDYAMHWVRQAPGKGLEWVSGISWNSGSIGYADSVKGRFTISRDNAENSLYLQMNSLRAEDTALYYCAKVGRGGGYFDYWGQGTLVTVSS

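The starting antibody came from a phage panning campaign against this peptide. Variants in AAYL51 differ from the parent at up to three CDR positions; double and triple changes were sampled at random. AlphaSeq pools MATa yeast showing the antibodies with MATalpha yeast showing the peptide. Pairs that bind mate more often; barcode pairs of the diploids are counted by sequencing. Each replicate has its own calibration line, from reference interactions of the BCL2 family. Mating was done three times.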

Positions count from residue 1 of the parent VH; G26Y puts Y in place of G. Values are log10 of the apparent Kd in nM; lower means stronger binding. Averages over replicates are reported, and they cover detected replicates only. "not detected" marks a missing value. The strain was present, yet no cells mated with the target were sequenced in any replicate, which points to weak or no binding. For reference, the parent read 1.86 as the reference entry and 0.88 as a member of this library. Background: pairings of library AAYL51 with three empty control strains gave a value in 21% of cases (median 4.54, 5th percentile 3.26). Values in that range, when seen in few replicates, are hard to tell from nonspecific mating.

changes	mean, log10 nM	detected
G26Y/M34N/G50E	3.64	1 of 3
F27Q/G59F/K65D	not detected	0 of 3
S52L/V64A	3.86	1 of 3
G26S/F27K/Y108A	not detected	0 of 3
H35I/G100I/D107T	not detected	0 of 3
F29M/A33N/W53Q	4.40	1 of 3
A33E/S63F/K65F	not detected	0 of 3
A33R/W53V/D107V	not detected	0 of 3
S57V/D107M	4.89	2 of 3
S63W/G100C/Y108E	4.08	1 of 3
K65N/V99T/G104V	not detected	0 of 3
I51V/W53C/G104L	5.70	3 of 3
G26H/G50Q/G59I	2.59	1 of 3
K65S/G103S	5.20	1 of 3
V64R/D107I	3.86	1 of 3
M34H/W53P/G102Y	3.49	3 of 3
G26W/I51K/G103C	not detected	0 of 3
T28W/M34P	not detected	0 of 3
D30Q/H35D/S52Q	5.23	1 of 3
A33H/W53Q/G104L	not detected	0 of 3
F29T/D107G/Y108L	2.41	3 of 3
F27N/D30G/S57W	4.99	2 of 3
S57Y/V99C/G102L	4.61	1 of 3
F27A/T28F/G50K	not detected	0 of 3
S52Q/Y60S	4.56	1 of 3
G50Y/S55M/G56M	not detected	0 of 3
F29W/V64Q	4.88	1 of 3
G100K/Y108M	4.69	2 of 3
T28Q/K65S/Y105H	3.36	2 of 3
F27I/H35A	4.46	2 of 3
H35F/S57K/G104Y	not detected	0 of 3
H35W/G50A/G59P	3.93	1 of 3
G26M/D30E/M34N	4.99	1 of 3
G26P/G50M/Y105C	not detected	0 of 3
I58T/G100V/G102S	not detected	0 of 3
G59R/G102W/F106T	3.99	1 of 3
T28F/G56M/Y108W	2.33	3 of 3
I51T/G59S/G102H	6.01	1 of 3
T28F/N54S/Y60T	3.45	1 of 3
W53I/N54C/S55E	not detected	0 of 3
G26Y/F29E/G102W	4.42	1 of 3
I58Q/D62Y/K65W	not detected	0 of 3
Y32P/G56S/Y60S	not detected	0 of 3
F27S/D30F/A33W	not detected	0 of 3
G56K/V64D/R101K	not detected	0 of 3
W53M/N54I/S63F	5.25	1 of 3
Y32E/S57H	4.69	1 of 3
F27H/G100W/G103T	4.31	1 of 3
A33N/G59Y	4.49	1 of 3
G50V/S52M/G100Y	not detected	0 of 3
D31A/G103V/Y105P	not detected	0 of 3
D31K/S57C/V64E	3.91	1 of 3
G26A/I58D/R101G	1.78	3 of 3
G50Y/I58C/Y108S	not detected	0 of 3
D62S/G100D/F106R	not detected	0 of 3
G100V/R101K/G104K	3.44	1 of 3
S52H/W53T/V64P	not detected	0 of 3
H35W/D62K/D107L	not detected	0 of 3
F29Y/D62P/F106R	5.12	3 of 3
S57D/G104V/F106N	0.85	3 of 3
T28R/G50W/W53G	5.19	3 of 3
F29K/N54C/G103R	4.81	1 of 3
G26V/M34V/G59W	not detected	0 of 3
N54F/A61H/Y105N	3.26	1 of 3

The 8 strongest on average among those seen in every replicate, once more:

{"changes": "S57D/G104V/F106N", "mean, log10 nM": "0.85", "detected": "3 of 3"}
{"changes": "G26A/I58D/R101G", "mean, log10 nM": "1.78", "detected": "3 of 3"}
{"changes": "T28F/G56M/Y108W", "mean, log10 nM": "2.33", "detected": "3 of 3"}
{"changes": "F29T/D107G/Y108L", "mean, log10 nM": "2.41", "detected": "3 of 3"}
{"changes": "M34H/W53P/G102Y", "mean, log10 nM": "3.49", "detected": "3 of 3"}
{"changes": "F29Y/D62P/F106R", "mean, log10 nM": "5.12", "detected": "3 of 3"}
{"changes": "T28R/G50W/W53G", "mean, log10 nM": "5.19", "detected": "3 of 3"}
{"changes": "I51V/W53C/G104L", "mean, log10 nM": "5.70", "detected": "3 of 3"}

Source: Engelhart et al. 2022 (doi:10.1038/s41597-022-01779-4), MIT Lincoln Laboratory and A-Alpha Bio; data file from the FLAb repository.